In PubChem BioAssay (Tox21):
“And” between values parts separate entries of the source, which are not always exact repeats. Equal values may be shown once. The list shows a part of the results, in another mix than the full data. Some compounds were tested as several samples or in several runs, with calls that do not always agree. The source made the active and inactive calls. The call rests on the fitted dose curve; in most records, active means well fitted cell-killing curve with a large enough effect in the repeat runs; inconclusive means weak or mixed curves, or effect the other way; inactive means flat fitted curve, though single readings scatter.

Assay: qHTS assay to identify small molecule HDAC inhibitors - cell viability counter screen (AID 1259365); further: nearly all actives have a fitted effect of over 50% in size
Conditions: HCT-116 viability, CellTiter-Glo ATP luminescence, 2 h; at 42.5 µM (top of the series)
Description: U.S. Tox21 Program National Center for Advancing Translational Sciences [NCATS] NIH Chemical Genomics Center [NCGC] U.S. Environmental Protection Agency [EPA] National Institutes of Environmental Health Sciences [NIEHS] National Toxicology Program [NTP] U.S. Food and Drug Administration [FDA] Tox21 Assay Overview: Histone deacetylases (HDACs) are a group of epigenetic enzymes that regulate gene expression by histone deacetylation. HDACs are capable of introducing epigenetic modifications and such aberrations contribute to the onset and progression of several human diseases, thus making HDACs a popular therapeutic target. For identifying endogenous class I/II HDAC inhibitors a homogenous, luminogenic HDAC I/II cell based assay was used to measure the relative activity of class I and II HDACs from cells. Wild type HCT-116 cells were used to screen Tox21 compound libraries for identifying class I/II HDAC inhibitors.
Tox21 Assay Protocol Summary: HCT-116 cells were dispensed at 1,500 per well in 5uL of culture medium into white solid bottom 1536-well plates (Greiner Bio-One, Monroe, NC) using a Multidrop Combi (Thermo Scientific, Waltham, MA) dispenser. The assay plates were incubated at 37 C and 5% CO2 for an overnight, and then 23nL of compounds dissolved in DMSO and positive control were transferred using a Pintool station (Wako, San Diego, CA). The assay plates were incubated at 37C and 5% CO2 for 2hr. After compound treatment, 4uL of CellTiter-Glo reagent (Promega Corporation, Madison, WI) was added to each well of the assay plates using Flying Reagent Dispenser (FRD, Aurora Discovery, San Diego, CA) and incubated the assay plates at room temperature for 30min. The luminescence signal was quantified using a ViewLux plate reader (Perkin Elmer, Shelton, CT).
On the % scale 0 is the no-effect control and ±100 the full control effect.

SMILES | activity change, negative = cytotoxicity
NC(=O)Nc1ccc([As](=O)(O)O)cc1 | inactive: -2.38%

Same assay, conditions: HCT-116 viability, CellTiter-Glo ATP luminescence, 2 h; at 92.4 µM (top of the series)

SMILES | activity change, negative = cytotoxicity
NC(=O)Nc1ccc([As](=O)(O)O)cc1 | inactive: 0.827%

Same assay, conditions: HCT-116 viability, CellTiter-Glo ATP luminescence, 2 h; at 92.4 µM (top of the series) unless noted

SMILES | activity change, negative = cytotoxicity
CCCCO[P+](=O)OCCCC | inactive: 1.87% and inactive: -2.51%
Cc1cc([N+](=O)[O-])c(O)c([N+](=O)[O-])c1 | inactive: 0.447%
CCCCCCCCCCCCCC[P+](CCCCCC)(CCCCCC)CCCCCC | inactive: -11%
CCNC(C)Cc1ccc2c(c1)OCO2 (centres undefined) | inactive: -3.66%
CCCCC(CC)CO[P+](=O)OCC(CC)CCCC (centres undefined) | inactive: 0.712%
CCOP(=S)(CC)Sc1ccccc1 (centres undefined) | inactive: -12.7%
CN(C(=O)Cc1cccc2occc12)[C@H]1CC[C@@]2(CCCO2)C[C@@H]1N1CCCC1 | inactive: -0.675%
CN(C(=O)Cc1ccc(Cl)c(Cl)c1)[C@H]1CC[C@@]2(CCCO2)C[C@@H]1N1CCCC1 | inactive: -0.693% [at 42.5 µM]
O=C(Cl)OCCOC(=O)Cl | inactive: -1.75%
O=P(Cl)(Cl)c1ccccc1 | inactive: -0.461%
O=[N+]([O-])c1ccc([N+](=O)[O-])cc1 | inactive: -7.43%
CC(C)OP(=S)(OC(C)C)SCCNS(=O)(=O)c1ccccc1 | inactive: 0.521%
ClP(Cl)c1ccccc1 | inactive: 2.01%
COC(=O)Cl | inactive: -0.597%
O=[N+]([O-])c1ccc(S(=O)(=O)O)c([N+](=O)[O-])c1 | inactive: 6.47%
Cc1cc([N+](=O)[O-])cc([N+](=O)[O-])c1O | inactive: 0.655% and inactive: -7.73%
O=C(Cl)Oc1ccccc1 | inactive: -5.55%
CCOC(=O)Cl | inactive: -15.1%
CC(C)CCCCCCCOP(OCCCCCCCC(C)C)Oc1ccccc1 | inactive: -11%
O=[p+]1oc2ccccc2c2ccccc21 (centres undefined) | inactive: 1.1%
CCC(C)(OOC(C)(C)C)OOC(C)(C)C | inactive: -0.293% [at 19 µM]
COP(=S)(Cl)OC | inactive: -2.93%
CN(C(=O)Cc1ccccc1)[C@H]1CC[C@@]2(CCCO2)C[C@@H]1N1CCCC1 | inactive: -0.0962% [at 42.5 µM]
CCCCOP(OCCCC)OCCCC | inactive: -5.63%
O=[P+](Oc1ccccc1)Oc1ccccc1 | inactive: 4.17%
CN(N=O)C(=N)N[N+](=O)[O-] | inactive: 1.45%
O=P(Cl)(Oc1ccccc1)Oc1ccccc1 | inactive: 3.46%
